Structures can show the parent of a compound that is named as a salt.
target: T1, thrombin (Bos taurus, UniProt P00735); test: Fibrinogen coagulation time (thrombin-induced clotting of fibrinogen); type: biochemical; details: pH 7.4, read-out: Concentration required to prolong the coagulation time by a factor of 2
T1 construct: mature alpha-thrombin (light plus heavy chain) cut from prothrombin
Description: The antithrombotic activities of the N^2 -dansyl-L-arginine derivatives of this invention were compared with those of a known antithrombotic agent, (N^2 -(p-tolylsulfonyl)-L-arginine methyl ester). by determining the fibrinogen coagulation time. The measurement of the fibrinogen coagulation time was conducted as follows:
An 0.8 ml aliquot of a fibrinogen solution, which had been prepared by dissolving 150 mg of bovine fibrinogen (Cohn fraction I) supplied by Armour Inc. in 40 ml of a borate saline buffer (pH 7.4), was mixed with 0.1 ml of a borate saline buffer, pH 7.4, (control) or a sample solution in the same buffer, and 0.1 ml of a thrombin solution (5 units/ml) supplied by Mochida Pharmaceutical Ltd. was added to the solutions in an ice bath. Immediately after mixing, the reaction mixture was transferred from the ice bath to a bath thermostated at 25°C. Coagulation times were taken as the period between the time of transference to the 25°C bath and the time of the first appearance of fibrin threads. In the cases where no drug samples were added, the coagulation time was 50-55 seconds.
The term "concentration required to prolong the coagulation time by a factor of two" is the concentration of an active ingredient required to prolong the normal coagulation time 50-55 seconds to 100-110 seconds.
The inhibitors are shown in Table 1 by indicating R in the general formula (I) and the added acid and/or water of crystallization.

Going from `COC(=O)[C@H](CCCNC(=N)N)NS(=O)(=O)c1cccc2c(N(C)C)cccc12` [Sample 1, N^2 -dansyl-L-arginine methyl ester dihydrochloride monohydrate] to `CC(C)CCOC(=O)[C@H](CCCNC(=N)N)NS(=O)(=O)c1cccc2c(N(C)C)cccc12` [Sample 8, N^2 -dansyl-L-arginine isopentyl ester di(p-toluenesulfonate)], the IC (2-fold clotting time) falls from 30 µM to 10 µM (3-fold).

Going from `CCCCCOC(=O)[C@H](CCCNC(=N)N)NS(=O)(=O)c1cccc2c(N(C)C)cccc12` [Sample 7, N^2 -dansyl-L-arginine n-amyl ester di(p-toluenesulfonate)] to `CCCCCCOC(=O)[C@H](CCCNC(=N)N)NS(=O)(=O)c1cccc2c(N(C)C)cccc12` [Sample 9, N^2 -dansyl-L-arginine n-hexyl ester di(p-toluenesulfonate)], the IC (2-fold clotting time) rises from 5 µM to 8 µM (1.6-fold).

First: CN(C)c1cccc2c(S(=O)(=O)N[C@@H](CCCNC(=N)N)C(=O)OCc3ccccc3)cccc12 [Sample 11, N^2 -dansyl-L-arginine benzyl ester di(p-toluenesulfonate)]
Second: CN(C)c1cccc2c(S(=O)(=O)N[C@@H](CCCNC(=N)N)C(=O)OCCCCl)cccc12 [Sample 17, N^2-dansyl-L-arginine 3-chloropropyl ester di(p-toluenesulfonate)]
The IC (2-fold clotting time) of the first is 2-fold lower: 2 µM for the first, 4 µM for the second.

Molecule `CN(C)c1cccc2c(S(=O)(=O)N[C@@H](CCCNC(=N)N)C(=O)N3CC4CCC(CC4)C3)cccc12` [Sample 69] has an IC (2-fold clotting time) of 10 µM.

— patent publication US3978045A, “N^2 -dansyl-L-arginine derivatives, and the pharmaceutically acceptable acid addition salts thereof” (priority 1973, dated 1976)
